Source: US8288548B2, “Oxazolo[5-4-b]pyridin-5-yl compounds” (Eli Lilly and Company, priority 2010, dated 2012)

Tested on: 786-O human renal cell carcinoma cells
Experiment: 786-O xenograft model in combination with sunitinib
Assay type: in vivo, athymic nude mice
Conditions: Sunitinib 10 mg/kg PO, BID x 28; Day 31
Description: Female athymic nude mice are obtained from Harlan Labs at a weight of 24-26 g. After 1 week acclimation, 5×10^6 786-O human renal cell carcinoma cells are injected subcutaneously in the rear flank of each mouse in a 0.2 mL volume in a 1:1 mixture of cell culture media and BD MATRIGEL™ matrix. Tumor size is monitored by caliper measurement twice per week. […] The compound is dosed orally in a 0.2 mL volume of 1% HEC, 0.25% TWEEN® 80, 0.05% antifoam (HEC/TWEEN®). Dosing is performed twice per day (BID) at 15 mg/kg either alone or in combination with 10 mg/kg or 20 mg/kg of sunitinib, also dosed orally BID in the same vehicle. Tumor volume is monitored twice per week and efficacy (tumor growth inhibition) is compared relative to vehicle-treated control animals. […] Statistical assessment of synergy was performed using two-way repeated measures analysis of variance on log tumor volume vs. time.

CCN(CC)CCNC(=O)c1c(C)[nH]c(/C=C2\C(=O)Nc3ccc(F)cc32)c1C [Sunitinib]
% Tumor Growth Inhibition: −27.7%
